From the NIST ThermoML archive (doi:10.1016/j.jct.2015.11.006)

Test: refractive index (Na D-line) (dimensionless)
Conditions: 298.15 K; 101.33 kPa; Liquid; Standard Abbe refractometry

refractive index: 1.3963 ± 0.0005
SMILES: CCCCOCCCC [dibutyl ether]

± gives the expanded uncertainty stated by the source.
